# Measured logP (octanol/water) values of organic chemicals

Values as listed in the OPERA 2.9 repository of K. Mansouri.

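The numbers are reported measurements, compiled and curated for the OPERA QSAR suite. One number stands for a compound and property, with no spread given. Method, purity and exact conditions of the single measurements are not given. The measured form (salt, isomer or mixture) is not always the one drawn. Some entries may be limits or estimates that an upstream database listed as plain numbers.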

The octanol-water partition coefficient is given as log10; larger values mean a more lipophilic compound.
"n/a" marks a cell with nothing listed here.
"via" names the databases from which the curators took the value.

structure (SMILES) | name | log Kow | via
C1CN(SSN2CCOCC2)CCO1 | 4,4'-Dithiodimorpholine | 2.58 | OFMPub, eChemPortal
CCCCC1(CCCC)c2ccccc2-c2ccc(C(=O)C(C)(C)N3CCOCC3)cc21 | n/a | 6.105 | eChemPortal
C=CCCCCCCCCC(=O)NCCOC(=O)CC(C(=O)[O-])S(=O)(=O)[O-].[Na+].[Na+] (stereo not drawn) | n/a | -3.1 | eChemPortal
C=CC(C)CCCC(C)(C)OC=O (stereo not drawn) | 7-Octen-2-ol, 2,6-dimethyl-, 2-formate | 3.55 | eChemPortal
C[C@@H](NCCc1ccc(O)cc1)[C@@H](O)c1ccc(O)cc1 | Ritodrine | 2.4 | PubChem
O=C(Nc1cc(Cl)c(NC(=O)c2cc3ccccc3c(N=Nc3cc(Cl)ccc3Cl)c2O)cc1Cl)c1cc2ccccc2c(N=Nc2cc(Cl)ccc2Cl)c1O | n/a | 0.465 | eChemPortal
CN(C)CCCNC1CC(C)(C)NC(C)(C)C1 | n/a | 3.772 | eChemPortal
O=C1CCC([C@H]2CC[C@H](c3ccc(F)c(F)c3)CC2)CC1 | n/a | 5 | eChemPortal
O=C(O)c1ccccc1P(c1ccccc1)c1ccccc1 | Benzoic acid, 2-(diphenylphosphino)- | 2.9 | eChemPortal
O=C1OC(=O)c2ccc3c4ccc5c6c(ccc(c7ccc1c2c73)c64)C(=O)OC5=O | Perylo[3,4-cd:9,10-c'd']dipyran-1,3,8,10-tetrone | 1.3 | eChemPortal
O=C(O)Cc1ccccc1Nc1c(Cl)cccc1I | 2-[(2-Chloro-6-iodophenyl)amino]benzeneacetic acid | 4.8 | OCHEM
CCOCCN | Ethanamine, 2-ethoxy- | 1.5 | eChemPortal
NCCCn1ccnc1 | 1H-Imidazole-1-propanamine | -0.6 | eChemPortal
CCCCOCCOCCOCCOCCO | 3,6,9,12-Tetraoxahexadecan-1-ol | 0.473 | eChemPortal
CCC(C)C(=O)N(C)c1ccccc1 (stereo not drawn) | Butanamide, N,2-dimethyl-N-phenyl- | 2.55 | eChemPortal
CCCc1ccc(-c2ccc(B(O)O)c(F)c2)cc1 | (3-Fluoro-4'-propyl[1,1'-biphenyl]-4-yl)boronic acid | 4.9 | eChemPortal
S=C(SSCCCCCCSSC(=S)N(Cc1ccccc1)Cc1ccccc1)N(Cc1ccccc1)Cc1ccccc1 | n/a | 10.4 | eChemPortal
Cc1ccc(NC(=O)Nc2ccc(Cc3ccc(NC(=O)Nc4ccc(C)cc4)cc3)cc2)cc1 | n/a | 3.8 | eChemPortal
CC1(C)OCC(CO)O1 (stereo not drawn) | Solketal | -0.6 | eChemPortal
COC1=Cc2ccccc2Nc2ccccc21 | 10-Methoxyiminostilbene | 2.9 | eChemPortal
CCN(CC)c1ccc(N=Nc2cc(Br)ccn2)c(O)c1 | 2-(5-Bromo-2-pyridylazo)-5-diethylaminophenol | 4.23 | OCHEM
COc1cc(C)ccc1O | 2-Methoxy-4-methylphenol | 1.2 | OCHEM
CCCCOc1ccc(C(=O)CCN2CCCCC2)cc1 | Dyclonine | 3.7 | PubChem
NC(=O)CC1(CC(=O)O)CCCCC1 | 1,1-Cyclohexanediacetic acid monoamide | 0.73 | eChemPortal
CSCC[C@H](NC(=O)[C@H](Cc1c[nH]c2ccccc12)NC(=O)CCNC(=O)OC(C)(C)C)C(=O)N[C@@H](CC(=O)O)C(=O)N[C@@H](Cc1ccccc1)C(N)=O | Pentagastrin | 1.6 | PubChem
CNc1ccc(C(=O)O)cc1 | Benzoic acid, 4-(methylamino)- | 1.01 | OCHEM
Cc1ccc(N)c(S(=O)(=O)O)c1 | 2-Amino-5-methylbenzenesulfonic acid | -0.67 | OFMPub, eChemPortal
CC(C)(CO)Cc1ccccc1 | Dimethyl phenylpropanol | 2.24 | eChemPortal
CCCCC(CC)CO (stereo not drawn) | 2-Ethyl-1-hexanol | 3.1 | OFMPub, eChemPortal
CC(C)NO | 2-Propanamine, N-hydroxy- | 0.267 | eChemPortal
CCOC(=O)c1nn(-c2ccc(OC)cc2)c2c1CCN(c1ccc([N+](=O)[O-])cc1)C2=O | n/a | 3.59 | eChemPortal
CC(C)C(C)(C)[C@@H]1CCC(=O)[C@H](C)C1 (relative stereo) | cis-2-Methyl-4-(1,1,2-trimethylpropyl)cyclohexanone | 2.76 | eChemPortal
CC(CN)CCCCCCN (stereo not drawn) | 1,8-Octanediamine, 2-methyl- | 2 | eChemPortal

The first 4 entries again:

structure (SMILES)	name	log Kow	via
C1CN(SSN2CCOCC2)CCO1	4,4'-Dithiodimorpholine	2.58	OFMPub, eChemPortal
CCCCC1(CCCC)c2ccccc2-c2ccc(C(=O)C(C)(C)N3CCOCC3)cc21	n/a	6.105	eChemPortal
C=CCCCCCCCCC(=O)NCCOC(=O)CC(C(=O)[O-])S(=O)(=O)[O-].[Na+].[Na+] (stereo not drawn)	n/a	-3.1	eChemPortal
C=CC(C)CCCC(C)(C)OC=O (stereo not drawn)	7-Octen-2-ol, 2,6-dimethyl-, 2-formate	3.55	eChemPortal